# According to patent US6846953B1, “Aromatic amides” (Warner Lambert Company, priority 1999, dated 2005):
# Amino acid sequences for entries named in this document (tags omitted).
# UniProt O77773, entry or part of it limits assumed: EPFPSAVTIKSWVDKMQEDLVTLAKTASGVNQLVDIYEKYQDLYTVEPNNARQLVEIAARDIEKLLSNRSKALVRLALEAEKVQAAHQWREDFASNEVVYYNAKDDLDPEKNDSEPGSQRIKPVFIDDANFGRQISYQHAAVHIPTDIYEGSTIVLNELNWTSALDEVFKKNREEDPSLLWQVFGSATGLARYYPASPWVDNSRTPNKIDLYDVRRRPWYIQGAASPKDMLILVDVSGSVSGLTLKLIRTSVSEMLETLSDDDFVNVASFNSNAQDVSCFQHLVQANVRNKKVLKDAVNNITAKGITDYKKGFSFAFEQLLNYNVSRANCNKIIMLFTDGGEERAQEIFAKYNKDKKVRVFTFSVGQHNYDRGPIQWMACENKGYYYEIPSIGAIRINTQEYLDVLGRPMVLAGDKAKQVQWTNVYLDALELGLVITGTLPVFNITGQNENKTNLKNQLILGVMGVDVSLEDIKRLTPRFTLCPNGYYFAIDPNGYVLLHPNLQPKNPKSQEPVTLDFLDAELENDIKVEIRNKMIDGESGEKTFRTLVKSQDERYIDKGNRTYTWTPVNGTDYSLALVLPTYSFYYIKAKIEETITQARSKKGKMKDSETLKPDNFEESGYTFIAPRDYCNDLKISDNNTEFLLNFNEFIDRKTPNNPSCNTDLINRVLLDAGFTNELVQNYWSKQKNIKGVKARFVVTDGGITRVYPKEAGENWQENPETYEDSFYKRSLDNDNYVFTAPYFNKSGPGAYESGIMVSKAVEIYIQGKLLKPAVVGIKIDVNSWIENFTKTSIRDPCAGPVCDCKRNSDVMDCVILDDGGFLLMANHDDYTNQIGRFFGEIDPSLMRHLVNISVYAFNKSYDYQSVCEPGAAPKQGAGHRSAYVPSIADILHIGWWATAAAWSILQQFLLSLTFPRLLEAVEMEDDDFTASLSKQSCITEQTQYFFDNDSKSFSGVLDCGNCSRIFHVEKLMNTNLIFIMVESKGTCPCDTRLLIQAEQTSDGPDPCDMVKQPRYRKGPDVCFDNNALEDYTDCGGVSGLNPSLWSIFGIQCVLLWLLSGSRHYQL
# Some compounds may have been tested in ways that are not shown here.
# Target: α2δ submit of the calcium channel found in animal brain tissue (Sus scrofa, UniProt O77773)
# Experiment: in vitro α2δ binding assay (Gee et al.)
# Conditions: read-out: IC50 (μM) at α2δ binding site
substance,measurement,value
"N-Propionyl, N-(2-Diethylaminoethyl)-3-bromobenzylamine",IC50,4.81 µM
